Biological target: hAChE (human erythrocyte membranes as a AChE source) (Homo sapiens, UniProt P22303)
Assay: acetylcholinesterase (AChE) activity, modified Ellman method
Assay type: biochemical
Settings: read-out: hAChE IC50, acetylthiocholine iodide substrate, pH=7.4

Amino acid sequences for entries named in this document (tags omitted). A change or cut given only in a name is not applied to a line headed by its entry.
UniProt P22303: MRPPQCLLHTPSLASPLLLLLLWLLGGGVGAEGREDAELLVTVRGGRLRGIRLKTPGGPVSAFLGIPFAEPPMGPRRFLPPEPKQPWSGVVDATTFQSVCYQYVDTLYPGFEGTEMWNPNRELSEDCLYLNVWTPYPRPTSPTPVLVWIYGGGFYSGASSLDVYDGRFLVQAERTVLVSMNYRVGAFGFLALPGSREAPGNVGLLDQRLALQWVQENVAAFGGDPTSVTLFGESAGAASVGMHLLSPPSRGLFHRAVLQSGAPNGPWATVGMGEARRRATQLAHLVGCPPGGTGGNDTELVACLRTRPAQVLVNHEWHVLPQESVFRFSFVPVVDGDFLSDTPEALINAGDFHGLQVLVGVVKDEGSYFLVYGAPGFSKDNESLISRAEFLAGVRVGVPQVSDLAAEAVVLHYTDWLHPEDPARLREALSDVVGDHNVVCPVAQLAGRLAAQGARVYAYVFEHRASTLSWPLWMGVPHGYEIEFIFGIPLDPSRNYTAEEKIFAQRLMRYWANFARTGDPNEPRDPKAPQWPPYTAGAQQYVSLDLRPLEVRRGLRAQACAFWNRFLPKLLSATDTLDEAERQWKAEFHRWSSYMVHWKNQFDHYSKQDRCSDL

`COc1cc2c(cc1OC)C(=O)C(Cc1cc[n+](Cc3ccccc3C)cc1C(C)=O)C2.[Br-]` (stereo not shown) [Compound 142, 2-[[3-acetyl-1-(o-tolylmethyl)pyridin-1-ium-4-yl]methyl]-5,6-dimethoxy-indan-1-one bromide] showed an IC50 of 8.8 nM.

Reference: patent US9376387B2 (priority 2013, dated 2016)
